Data on 3 substances can be found in publication PMC9561763, “Semi-rational engineering membrane binding domain of L-amino acid deaminase from Proteus vulgaris for enhanced α-ketoisocaproate” (Frontiers in Microbiology, 2022).

The data set deals with CC(C)C[C@H](N)C(=O)O. The experiment in a line: purified protein. To be noted: 20 mM phosphate pH 7.5, 37 °C, 0-175 mM L-leucine (b36 says optimal temperature and pH), Triton X-100 purified enzyme.

A word on the Km: it is the concentration of substrate that gives half-maximal velocity. The kcat is the maximal rate divided by the concentration of active sites. The term kcat/Km denotes the turnover number divided by the Michaelis constant. In the case of “L-amino acid deaminase (L-AAD) from Proteus vulgaris (Proteus vulgaris; L363N)”, the Km is given as 15.87 mmol/L, the kcat was 1.7 s⁻¹ and the kcat/Km is 107 M⁻¹ s⁻¹.

With “L-amino acid deaminase (L-AAD) from Proteus vulgaris (Proteus vulgaris; D340G)”, the Km stood at 16.01 mmol/L, the kcat is 1.69 s⁻¹ and the catalytic efficiency (kcat/Km) was 106 M⁻¹ s⁻¹.

Take “L-amino acid deaminase (L-AAD) from Proteus vulgaris (Proteus vulgaris; D340N)”: the Michaelis-Menten constant (Km) stood at 9.87 mmol/L, the kcat came out at 2.32 s⁻¹ and the kcat/Km was 235 M⁻¹ s⁻¹.
